Laboratory results taken from patent US20240325397A1, “USE OF COMBINATION THERAPY FOR TREATING CANCER” (Recurium IP Holdings, LLC, priority 2021, published 2024).

How the values were obtained:
[1] = tested on: HER2+ JIMT-1 breast cancer cell line; assay: HER2+ JIMT-1 breast cancer xenograft, Study 1-Part 1; type: in vivo; conditions: Compound (A) 60 mg/kg p.o. qd × 28, trastuzumab 10 mg/kg i.p. qw × 4
Source text: The HER2+ JIMT-1 breast cancer cell line was used for tumor xenograft inoculations and subsequent treatment. The JIMT-1 breast cancer cell line has been described in literature to be relatively resistant to HER2-targeted therapy (JIMT-1 cell line was established from pleural metastasis of a patient with breast cancer who was clinically resistant to trastuzumab (See Tanner et al. Mol Cancer Ther (2004) 3(12):1585-1592)), including to weekly administration of trastuzumab. To test if Compound (A) can improve the anti-tumor effects of HER2-targeted treatment, NOD/SCID mice were inoculated subcutaneously on the right flank with the single cell suspension of 95% viable tumor cells (5×10^6) in 100 μL DMEM Matrigel mixture (1:1 ratio) for tumor development. Treatment was started when mean tumor size reached 204 mm^3. Mice were then randomized into 5 groups and treatments were administered to the tumor-bearing mice accordingly to the study design in Table 2.
In FIG. 8, the top line (indicated with circles) is Vehicle A, and the third from the bottom line (indicated with circles) is trastuzumab (10 mg/kg) alone. […] Table 3 summarizes the results of the experiment depicted in FIG. 8. ^aTGI=Tumor growth inhibition, calculated as TGI=(1-(Td−T0)/(Cd−-C0))×100%, Td and Cd were the mean tumor volumes of the treated and control animals, and T0 and C0 were the mean tumor volumes of the treated and control animals at the start of the experiment; ^b. calculated vs. Vehicle Control by Dunnett T3 Test.

[2] = tested on: HER2+ JIMT-1 breast cancer cell line; assay: HER2+ JIMT-1 breast cancer xenograft, Study 1-Part 2 (high initial tumor burden); type: in vivo, NOD/SCID mice; conditions: Day 14 of second part; tumors approximately 1000 mm^3 at start; Compound (A) 60 mg/kg p.o. qd; trastuzumab 10 mg/kg i.p. qw; vs. vehicle
Source text: Next, mice in the two vehicle groups were randomized on Day 29 to be treated with either vehicle, Compound (A) alone, trastuzumab alone or the combination of Compound (A) with trastuzumab according to Table 4. At this point, tumors had reached approximately 1000 mm^3 and therefore, treatment of these mice occurred at high initial tumor burden.
Table 5 summarizes the results (tumor growth inhibition) of the experiment depicted in FIG. 9. ^aTGI=Tumor growth inhibition on Day 14. […] Table 6 summarizes the results (tumor regression) of the experiment depicted in FIG. 9. ^aTumor Regression=(1−(Td/T0))×100%.

trastuzumab was tested, and the tolerability [1] was “well tolerated”, the “tumor growth inhibition (TGI) on Day 29 compared to respective vehicle controls” value ([1]; combination vs. either vehicle control) was 59% and the “TGI (%) vs. Vehicle B” value ([1]; Day 29, Vehicle B i.p.) was 59.2%. The “TGI (%) on Day 14” value [2] was 68.0%.
